The numbers were not newly measured in patent US8299237B2, “Nucleic acid sequences comprising NF-κB binding site within O(6)-methylguanine-DNA-methyltransferase (MGMT) promoter region and uses thereof for the treatment of cancer and immune-related disorders” (Hadasit Medical Research Services & Development Ltd., priority 2007, dated 2012), which cites them from elsewhere.

The conditions of this data set: in vivo, iv; cited from earlier work.

“poly (Lactide-co-glycolide) monomethoxypoly (ethyleneglycol) [PLGA-mPEG nanoparticles]”: the “pharmacokinetic behaviour (in words)” value is “linear and dose-independent pharmacokinetic”.
